Inhibition data for 79 molecules are collected here from PubChem BioAssay AID1217 (Sanford-Burnham Center for Chemical Genomics, 2008).

A word on the inhibition: it is the drop in the measured response relative to a control, in per cent.

Only a part is listed here, and it is no random draw. The source made the active and inactive calls.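 Rule for the calls: active = primary screen inhibition at 20 µM above a set limit (cut at about 50% in these data); inactive = the rest.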

For the assay, the system named is diaphorase (Clostridium kluyveri). In words: diaphorase inhibitors and chemical oxidizers, primary screen, counter-screen for diaphorase-coupled primary assays, biochemical, uHTS, resorufin fluorescence (AID 1217).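 Note: plate controls were DMSO with full reaction for no effect and wells lacking NADH for full effect.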 Conditions: diaphorase resazurin-to-resorufin fluorescence, NADH, 16 min; at 20 µM; hits give high values; bacterial (C. kluyveri) enzyme, not human. For orientation: The purpose of a counterscreen is to sort out artefacts and off-target activity.
For `O=[N+]([O-])c1ncn(CCn2ncnc2[N+](=O)[O-])n1`, the inhibition was inactive: 4.7%. Turning to `COc1ccc(C2=NCC(CBr)S2)cc1` (centres undefined), the inhibition is inactive: -24.4%.

On to `O=[N+]([O-])c1cccc2n[nH]nc12`, for which the inhibition is inactive: 4.3%.

With `CC(=O)N1C2C3N(C(C)=O)C1C1N(C(C)=O)C(C(N1C(C)=O)N3C(C)=O)N2C(C)=O`, the inhibition is inactive: 7.6%. `Cc1ccc(NP(=O)(Oc2ccccc2)Oc2ccccc2)nc1`: the inhibition is inactive: 13.5%.

Regarding `CCc1nc2c(n1)c1c(non1O)c1c2no[n+]1[O-]`, the inhibition was active: 68%.

Regarding `O=[N+]([O-])c1cc([N+](=O)[O-])c(CCNc2ccccc2)c([N+](=O)[O-])c1`, the inhibition was inactive: 21.8%. As for `CCN(/C(=N/P(=O)(N1CCOCC1)N1CCOCC1)N1CCOCC1)c1ccc(OC)cc1`, the inhibition was inactive: 1.9%. Regarding `CC(C)=N/N=C(\N)N[N+](=O)[O-]`, the inhibition was inactive: -16.6%. For `CN(C)C(=O)OCCc1n(C)cc[n+]1C`, the inhibition is inactive: -0.5%. To `CC1CCN(C(=O)Oc2c(Cl)cc(Cl)c3cccnc23)CC1` belongs inactive: 4.9%; to `NC(=O)c1cc([N+](=O)[O-])cc([N+](=O)[O-])c1N`, inactive: -13.1%. The result for `Cc1ccc(N/C(=N/P(=O)(N2CCOCC2)N2CCOCC2)N2CCOCC2)cc1` reads inactive: 3.1%.

For `COc1ccccc1OP(=O)(Nc1ccc(C)cn1)Oc1ccccc1OC`, the inhibition was inactive: 13%. As to `Clc1ccc(Cl)c(NC2=NCC(CBr)S2)c1` (centres undefined), the inhibition is inactive: -5.4%. To `CN1CCCC(OC(=O)C(c2ccccc2)c2ccccc2)C1` (centres undefined) belongs inactive: 1.2%. To `CC(C)CC(=O)NC(Sc1ccc(Cl)cc1)C(Cl)(Cl)Cl` (centres undefined) belongs inactive: 2.2%; to `Oc1ccccc1CNc1ccccn1`, inactive: 2.5%; to `Cc1c2non([O-])c-2c(C)[n+](=O)[n+]1[O-]`, active: 51%. The result for `O=C(NC(Sc1ccncn1)C(Cl)(Cl)Cl)c1ccccc1` (centres undefined) reads inactive: 26.3%; that for `CCOP(=O)(Nc1ccccc1)OCC`, inactive: 5.6%. Turning to `Cc1cc(SC(NC(=O)c2ccc(F)cc2)C(Cl)(Cl)Cl)ncn1` (centres undefined), the inhibition was inactive: 27.5%. Consider `CCN(N=Nc1nonc1N)c1nonc1N`, for which the inhibition is inactive: 15.9%. To `CCNC(=S)/N=C(\N)N[N+](=O)[O-]` belongs inactive: 9.2%. Take `O=C(NC1CCS(=O)(=O)C1)NP(=S)(Oc1ccccc1)Oc1ccccc1` (centres undefined): the inhibition is inactive: 16%.

Regarding `c1ccc(-c2nn[nH]n2)c(-c2nn[nH]n2)c1`, the inhibition was inactive: -16.3%. Turning to `CCOC(=O)NC(Sc1ccccc1)C(Cl)(Cl)Cl` (centres undefined), the inhibition was inactive: 9.5%. On to `COC(=O)c1cc2c(s1)N=C(c1ccccc1)N(C)P2(=O)N1CCOCC1` (centres undefined), for which the inhibition is inactive: 7.9%. To `Cc1ccc(OP(=O)(Nc2ccccn2)Oc2ccc(C)cc2)cc1` belongs inactive: 6.1%; to `CC(=O)NC(SC(=S)N(CC(C)C)CC(C)C)C(Cl)(Cl)Cl` (centres undefined), inactive: 9.9%. To `CCC(=O)N1C2C3N(C(=O)CC)C1C1N(C(=O)CC)C(C(N1C(=O)CC)N3C(=O)CC)N2C(=O)CC` belongs inactive: 11.5%; to `O=c1c2cc([N+](=O)[O-])ccc2[nH]c2c([N+](=O)[O-])cc([N+](=O)[O-])cc12`, inactive: 25.4%; to `O=P1(Nc2nc3ccc(Cl)cc3s2)COc2ccccc2O1` (centres undefined), inactive: 9.8%. To `CCOc1ccc(C2=NCC(CBr)S2)cc1` (centres undefined) belongs inactive: -11.5%; to `CC(C)(C)C(=O)NC(Sc1ccccc1)C(Cl)(Cl)Cl` (centres undefined), inactive: 10.9%; to `CC(=O)Nc1ccc(Oc2c([N+](=O)[O-])cc([N+](=O)[O-])cc2[N+](=O)[O-])cc1`, inactive: 0%. Turning to `CC(C)C(=O)NC(Sc1ccccc1)C(Cl)(Cl)Cl` (centres undefined), the inhibition was inactive: 10.2%.

With `O=P(Nc1nccs1)(c1ccccc1)c1ccccc1`, the inhibition is inactive: -0.8%. The result for `c1nnnn1CCn1cnnn1` reads inactive: 12.4%; that for `O=P(Nc1ccccn1)(c1ccc(Br)cc1)c1ccc(Br)cc1`, inactive: 2.5%. To `CC(=O)NC(SC(=S)N(C)C)C(Cl)(Cl)Cl` (centres undefined) belongs inactive: 7.2%; to `C(Cc1nn[nH]n1)Cc1nn[nH]n1`, inactive: -0.9%. The result for `O=C(OC1CN2CCC1CC2)c1cccc(Cl)c1` (centres undefined) reads inactive: 3.2%; that for `Cc1nn(-c2ccccc2)c2c1P(=O)(N1CCOCC1)N(C)C(c1ccccc1)=N2` (centres undefined), inactive: 15.7%; that for `CC1CCC(C(C)C)C(OP(=O)(Nc2ccccn2)c2ccccc2)C1` (centres undefined), inactive: 0.9%. In the case of `CN(C)C1(CNC(=O)c2ccc(S(C)(=O)=O)cc2)CCCCC1`, the inhibition is inactive: 8.9%.

For `O=P1(Nc2ncccn2)COc2ccccc2OC1`, the inhibition was inactive: 1.2%. Turning to `O=P1(Nc2ccc(Br)cn2)COc2ccccc2OC1`, the inhibition was inactive: -5%. The result for `Cc1ccc(OCC(=O)OC2CN3CCC2CC3)cc1` (centres undefined) reads inactive: 10.7%; that for `O=P1(Nc2ccccn2)COc2ccccc2OC1`, inactive: 9%. To `Clc1n[nH]nc1-c1nn[nH][15n]1` belongs inactive: 20.1%; to `CC(C)/C=N\N=C(\N)N[N+](=O)[O-]`, inactive: 1.3%. For `CN(C(=O)Cc1ccc(Cl)c(Cl)c1)[C@@H]1CCCC[C@H]1N1CCCC1`, the inhibition is inactive: 17.1%.

As for `COc1cc(C(=O)NCC2(N3CCOCC3)CCCCC2)cc(Cl)c1OC(C)C`, the inhibition was inactive: 10%.

On to `Cc1cccc(OCC(=O)OC2CN3CCC2CC3)c1` (centres undefined), for which the inhibition is inactive: 11.7%. To `Cc1ccc(NCCc2c([N+](=O)[O-])cc([N+](=O)[O-])cc2[N+](=O)[O-])cc1` belongs inactive: 37.5%. Turning to `COc1cc(C2NCCC3(OCCO3)C2(C)C)cc(OC)c1OC` (centres undefined), the inhibition was inactive: 21.1%. The result for `CCOP(=O)(Nc1cccc2ccccc12)OCC` reads inactive: 8.6%. Take `CCOP1(=S)c2c(C)nn(CCC#N)c2N=C(c2ccccc2F)N1C` (centres undefined): the inhibition was inactive: 6.9%. To `O=P(Nc1nccs1)(c1ccccc1)c1nc2ccccc2s1` (centres undefined) belongs inactive: 11.8%. For `O=P(Nc1nccs1)(Oc1ccccc1)Oc1ccccc1`, the inhibition is inactive: 1.9%. To `O=[N+]([O-])c1ccc2c(c1)nnn2O` belongs inactive: 5.6%; to `CCOP1(=S)c2c(C)nn(CCC#N)c2N=C(c2ccc(F)cc2)N1C` (centres undefined), inactive: 6.2%; to `Cc1ccc2nc3c(c(C)c2c1)CC(C(Cl)Cl)S3` (centres undefined), inactive: 18.2%.

In the case of `ClCCSc1nnc(-c2cccnc2)o1`, the inhibition was inactive: 10.9%. The result for `CCN(CC)C(=S)SC(NC=O)C(Cl)(Cl)Cl` (centres undefined) reads inactive: 2.7%. The result for `CC(C)NC(=O)NP(=O)(Oc1ccccc1)Oc1ccccc1` reads inactive: 10.7%; that for `O=[N+]([O-])c1cc([N+](=O)[O-])c(-c2ccn[nH]2)s1`, inactive: 7.5%; that for `O=C(OC1CN2CCC1CC2)C12CC3CC(CC(C3)C1)C2` (centres undefined), inactive: 0.9%. On to `Cc1cc(=O)[nH]c(N[N+](=O)[O-])n1`, for which the inhibition was inactive: -4.3%.

Take `Cc1c2c(nc3ccccc13)SC(C(Cl)Cl)C2` (centres undefined): the inhibition is inactive: 19.5%. To `COc1ccc2nc(NP(=O)(c3ccccc3)c3ccccc3)sc2c1` belongs inactive: 6.9%. To `COc1ccc(N/C(=N/P(=O)(N2CCOCC2)N2CCOCC2)N2CCOCC2)cc1` belongs inactive: 2.3%; to `COP1(=S)c2c(C)nn(CCC#N)c2N=C(c2ccc(F)cc2)N1C` (centres undefined), inactive: -10.9%; to `O=C(COc1ccccc1)OC1CN2CCC1CC2` (centres undefined), inactive: 6.1%. To `CCC(C)N(CC(C)C)C(=S)SC(NC(C)=O)C(Cl)(Cl)Cl` (centres undefined) belongs inactive: -10.9%; to `Cc1cc(SC(NC(=O)c2ccccc2)C(Cl)(Cl)Cl)nc(C(C)C)n1` (centres undefined), inactive: 7.5%. As for `O=P(Nc1ccccn1)(c1cccc2ccccc12)c1cccc2ccccc12`, the inhibition was inactive: 31%. On to `Cc1cc(SC(NC=O)C(Cl)(Cl)Cl)ncn1` (centres undefined), for which the inhibition was inactive: 0%.
